Binding of CDR-mutated scFvs to a peptide of the spike HR2 region

Values reported by Engelhart et al. 2022, doi:10.1038/s41597-022-01779-4 (FLAb copy).

All variants were tested on one target, the spike HR2 peptide PDVDLGDISGINAS (SARS-CoV-2).

Ab-14 is the parent antibody, in scFv form: VH, then a (GGGGS)3 linker, then VL. The light chain is unchanged in all variants.
VH: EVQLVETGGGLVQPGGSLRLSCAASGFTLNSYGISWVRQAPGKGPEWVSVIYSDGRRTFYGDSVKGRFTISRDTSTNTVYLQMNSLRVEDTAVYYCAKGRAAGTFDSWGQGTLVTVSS
VL: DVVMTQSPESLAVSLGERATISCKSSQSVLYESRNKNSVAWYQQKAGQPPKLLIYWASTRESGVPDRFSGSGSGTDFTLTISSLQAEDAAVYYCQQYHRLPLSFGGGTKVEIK

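The starting antibody came from a phage panning campaign against this peptide. Variants in AAYL49 differ from the parent at up to three CDR positions; double and triple changes were sampled at random. AlphaSeq pools MATa yeast showing the antibodies with MATalpha yeast showing the peptide. Mating (16 h, 30 °C) was followed by selection of diploids and sequencing of their barcodes. A regression on co-assayed BCL2-family reference pairs converts the normalised counts of each replicate to an apparent Kd. Mating was done three times.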

Positions count from residue 1 of the parent VH; G26I puts I in place of G. Every variant below is changed at G26 of the VH (sequential numbering). Scale: log10 of Kd in nM, estimated from mating counts; low values are strong binders. Where no diploid with the target was found in that replicate, the entry reads "nd": below detection, most likely a poor binder, though not proof of it. For reference, the parent read 0.65 as the reference entry and 4.11 (one replicate of three) as a member of this library.

The variant G26I S31M G55K gave nd, nd, nd. For G26Q G33E Y60V, the assay gave 3.24, 2.08, 2.02. The variant G26F Y52K D62I gave nd, 5.18, 4.70. The variant G26Y Y60M S63R gave nd, nd, nd. For G26F R57M R100G, the assay gave nd, nd, nd. The variant G26V K65F S107Y gave nd, nd, 4.37. The variant G26Y S53Y G61R gave 2.42, 2.61, 1.85. For G26Q R100C T104L, the assay gave nd, nd, nd.

The variant G26I G103H showed nd, nd, nd. For G26S F105C, the assay gave nd, nd, nd. The variant G26R G33F R100M showed nd, nd, 4.70. The variant G26N G33M I34T gave nd, nd, nd. For G26T G55T S107Q, the assay gave nd, nd, nd. The variant G26R F27Q V64I gave 3.90, 4.09, 3.02. For G26E Y32G V64Y, the assay gave nd, nd, nd. With G26K R56E S107C the result was 0.02, 0.40, 0.20.

The variant G26M R57D G61F showed nd, 4.74, 4.64. The variant G26Q A101D G103T gave nd, nd, nd. The variant G26R I51M R57G gave nd, nd, nd. For G26S G103I F105C, the assay gave nd, nd, nd. With G26D G33K I34T the result was 4.97, nd, 4.02. For G26E, the assay gave 1.06, 1.27, 1.07. The variant G26P G33Q R56A showed 4.47, nd, nd. With G26R V50A Y60M the result was nd, nd, nd.

For G26L F59D A102I, the assay gave nd, nd, nd. The variant G26C D54H R100C gave nd, 3.76, nd. With G26N G61S T104Q the result was 1.96, 1.67, 1.85. The variant G26Q A101L showed 1.61, 1.53, 1.55. The variant G26Y Y60K G99E showed nd, nd, nd. The variant G26R Y32E showed nd, nd, nd. With G26M S53Y the result was 2.74, nd, nd. The variant G26F Y32E F59T gave 3.97, 4.66, nd.

With G26D T28E N30L the result was 2.70, 2.43, 3.06. With G26E T104K D106R the result was 3.03, nd, nd. With G26A G61L D106V the result was 1.31, 1.89, 1.69. The variant G26K R56T G61I showed nd, nd, nd. The variant G26Q S53L R100T gave 4.09, 4.09, 4.03.

Top 4 of the variants detected in all replicates, tightest first:

The variant G26K R56E S107C gave 0.02, 0.40, 0.20.
The variant G26E gave 1.06, 1.27, 1.07.
The variant G26Q A101L gave 1.61, 1.53, 1.55.
The variant G26A G61L D106V gave 1.31, 1.89, 1.69.

Three control strains display no target. For library AAYL49, 15% of the pairings with them gave a signal, with a median of 4.06 and one signal in twenty below 2.83, so weak values seen in few replicates may be background.